# Laboratory results published in US20010010822A1, “LIPID COMPLEXES AND LIPOSOMES OF HIGHLY INSOLUBLE PLATINUM COMPLEXES” (priority 1999, published 2001).
# Experiment: Solubility in water (statement in reaction scheme description)
substance,measurement,value
diaminocyclohexane-platinum iodide [diaminocyclohexane-platinum iodide (4)],solubility in water,only slightly soluble in water
